System: CT26 hGCC/luc #32 cells
Test: Pilot efficacy study with naked antibody in CT26 hGCC/luc #32 disseminated model
Conditions: vs vehicle or 209-treated groups

5F9: Human anti-GCC mAb (IgG2, kappa) of hybridoma 5F9, ATCC PTA-8132; VH SEQ ID NO:18, VL SEQ ID NO:20; also engineered as IgG1
Lung tumor nodules (visual inspection): fewer tumor nodules
